The values below are quoted from earlier work in patent US4874795A, “Composition for delivery of orally administered drugs and other substances” (priority 1986, dated 1989).

For the series the following is noted: in vivo; cited from earlier work.

Take phosphatidyl choline: the “effect of excess on lipid absorption” value is on record as “reduce lipid absorption”.
